Measurements from patent US11963980B2, “Activated CD26-high immune cells and CD26-negative immune cells and uses thereof” (MUSC FOUNDATION FOR RESEARCH DEVELOPMENT, priority 2016, dated 2024).

System: CD4^+CD26^high cells
Details: 2.5 nM Alogliptin, N=4

Cn1c(=O)cc(N2CCC[C@@H](N)C2)n(Cc2ccccc2C#N)c1=O [Alogliptin]
MIP-1β (chemokine) secretion of CD4+CD26high cells: less
